## Yeast mating assay B: variants of the scFv Ab-14

Target: peptide PDVDLGDISGINAS, taken from heptad repeat 2 (HR2) of SARS-CoV-2 spike.

Ab-14 is the parent antibody, in scFv form: VH, then a (GGGGS)3 linker, then VL. The light chain is unchanged in all variants.
VH: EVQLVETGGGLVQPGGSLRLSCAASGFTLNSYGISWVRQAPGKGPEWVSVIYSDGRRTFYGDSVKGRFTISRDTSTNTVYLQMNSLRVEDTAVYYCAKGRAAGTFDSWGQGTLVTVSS
VL: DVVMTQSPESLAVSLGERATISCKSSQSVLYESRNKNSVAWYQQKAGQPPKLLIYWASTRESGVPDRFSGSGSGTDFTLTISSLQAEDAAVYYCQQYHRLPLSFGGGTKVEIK

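The starting antibody came from a phage panning campaign against this peptide. The variants were designed computationally from a first round of random CDR variants and then made and measured. Several design methods are mixed in this list. The scFvs were displayed on barcoded MATa yeast, the peptide on MATalpha yeast. Pairs that bind mate more often; barcode pairs of the diploids are counted by sequencing. Each replicate has its own calibration line, from reference interactions of the BCL2 family. The assay was run in six technical replicates.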

Variants are written as CDR1, CDR2 and CDR3 of the heavy chain (limits as in the source). Parent: GFTLNSYGIS, VIYSDGRRTFYGDSVK, GRAAGTFDS. This list holds designs with at most six substitutions. Each Kd is an estimate from the mating assay, the geometric mean of the replicates in which the pair was seen; lower is stronger. "nd" means that the variant was in the library but no mating with the target was seen in any replicate; the authors take this as a sign of poor binding, and no number exists. Of ten entries with the parent sequence, four were seen in most replicates (averages 2.2 nM to 240 nM), three in one and three in none, so single entries are noisy.

Variant GFDLNSYGIS / VIYSDGRRTFYSDSVK / GRAPGTFDS showed 8.4 nM (5 of 6 replicates; controls 0 of 18). Variant GFTLNSYGIS / VIYSDGRRTFYGDSVK / GRQAGQFDS showed 2.7 nM (1 of 6 replicates; controls 0 of 18). For GFTLNSYGIS / VIYSDGRRQFYIDSVA / GSNAGTFDS, the assay gave nd (0 of 6 replicates; controls 0 of 18). With GFTLNQYGIS / VIMSDGRRTFYSDPVK / GRAAGWFDS the result was nd (0 of 6 replicates; controls 1 of 18). Variant KFSLNSYGIS / VIYADGRRTFYGDSVK / GQAAGTFDS gave 1.5 nM (6 of 6 replicates; controls 1 of 18). With GFTLNSYGIS / VIYSDGLRTFYSDSVK / GRAGGTFDS the result was 77 nM (5 of 6 replicates; controls 0 of 18). Variant GFTLNSYGIQ / VIYSDGRRTAYSDSVK / GRASGQFDS gave nd (0 of 6 replicates; controls 0 of 18). Variant GFDLNAYGIS / VIYSDGRRTFYVDSVK / GQAAGTFDS gave 7.6 nM (6 of 6 replicates; controls 0 of 18). For KFTLNEYGIS / VIYSDGYRTFYSDSVK / GRAATTFDQ, the assay gave nd (0 of 6 replicates; controls 0 of 18).

With GFTLDSYGIS / VIYSDGRRTFYIDSVK / GRAAGTFVS the result was nd (0 of 6 replicates; controls 0 of 18). With GFGLNSYGIS / VIYSDGRRTFYGDSVK / GRLAGTFDS the result was 91 nM (5 of 6 replicates; controls 1 of 18). Variant GFTLNSYGIS / VIYSDGRRTFYLDSVS / GRAAGDFDS gave nd (0 of 6 replicates; controls 0 of 18). With GFTLEPYGIS / VIYSDGRRTFYGDSYK / GRAAVFFDQ the result was nd (0 of 6 replicates; controls 0 of 18). Variant GFTLNSYGIS / VIYSDGRRTAYGDSVV / GRAAGTFDS gave 100 nM (6 of 6 replicates; controls 0 of 18). Variant GETLNSYGIS / VIYSDGRRTFYGDSVK / GTAAGTFDL showed nd (0 of 6 replicates; controls 0 of 18). Variant GFTLNDYGIS / VIYSDGRLTQYIDSVK / GRAAGAFDS showed nd (0 of 6 replicates; controls 0 of 18). For GETLNCYGIS / VIYSDGRRTFYGDSVK / RRAALTFDS, the assay gave nd (0 of 6 replicates; controls 0 of 18). Variant GFDLNSYGIS / VIYSDGRRTFYGDGVK / GKAAGTFDV gave 1.6 nM (6 of 6 replicates; controls 0 of 18).

Variant GFWLNSYGIS / VIYSDGRRTFYGDSVK / GKTAGTFDT gave 17 nM (4 of 6 replicates; controls 0 of 18). Variant GFTLNSYGIS / VIYADGRRTFYGDSVK / GKAAGTFKY showed nd (0 of 6 replicates; controls 1 of 18). With GFDLNSYGIS / VIYSDGRRTFYGDSVK / GRTAGMFDS the result was 29 nM (2 of 6 replicates; controls 0 of 18). Variant GFTLNEYGIS / VIYSDGYRTFYGDSVK / GRAAVTFDQ gave nd (0 of 6 replicates; controls 0 of 18). With GFTLNSYGIS / VIYSDGRRTFYIDSVK / GRAAGTFDT the result was 18 nM (4 of 6 replicates; controls 0 of 18). For GFTLNSYGIQ / VIYSDGRRTFIGDSVK / GRAPLTFDS, the assay gave nd (0 of 6 replicates; controls 0 of 18). Variant GFGLNSYGIS / VIYSDGRRTFYADSVK / GKQAGTFDS gave 740 pM (6 of 6 replicates; controls 0 of 18). Variant GFTLNSYGIS / VIYSDGRRTFYADHVK / GEAAGTFDS showed 19 nM (5 of 6 replicates; controls 0 of 18). For GFGLNEYGIS / VIYSDGRRTFYGDSVK / GSAAGTFDS, the assay gave 5.2 nM (4 of 6 replicates; controls 0 of 18).

With GFQLNDYGIS / VIYSDGRRTEYGDSVK / GRAAGTFDS the result was 38 nM (5 of 6 replicates; controls 1 of 18). For GFNLNSYGIS / VIYSDGRRTFYADPVK / GRTAGTFDS, the assay gave 4.5 nM (6 of 6 replicates; controls 0 of 18). Variant GFSLNDYGIS / VIYSDGRRTFYVDEVK / GRTAGTFDS gave 700 pM (6 of 6 replicates; controls 0 of 18). Variant GFNLNSYGIS / VIYSDGRRTFYGQSVD / GRAAGTFDS showed 900 nM (1 of 6 replicates; controls 0 of 18). Variant GFTLNSYGIS / VIYSDGRRTFYGDEVK / GHAAGTFDS showed nd (0 of 6 replicates; controls 0 of 18). Variant GEHINSYGIS / VIYSDGRRTFYGNSVK / GRAAGTFDS showed 110 nM (1 of 6 replicates; controls 1 of 18). Variant GFTLNQYGIS / VIYSDGMRTFYSDSVK / GKAAGTFDS showed 2.9 nM (6 of 6 replicates; controls 0 of 18). With GFALNSYGIS / VIYSDGRRTFYGDSVK / GNEAGTFDS the result was 210 nM (3 of 6 replicates; controls 0 of 18).

Background: pairings of all heavy chain designs with three empty control strains gave a value in 1% of cases (median 120 nM, 5th percentile 7.0 nM). Values in that range, when seen in few replicates, are hard to tell from nonspecific mating. Also given: how often the same scFv was detected with the empty control strains. The authors' rule: three or more of the six replicates give a measured affinity, fewer mean a poor binder. The range of this assay differs from that of the first round, and the authors advise against merging the two.

Reference: Li et al. 2023, doi:10.1038/s41467-023-39022-2. File: FLAb, binding data.